Measured values: article PMC6893898, “Receptor Interaction Profiles of 4-Alkoxy-Substituted 2,5-Dimethoxyphenethylamines and Related Amphetamines” (Frontiers in Pharmacology, 2019)

Amino acid sequences for entries named in this document (tags omitted).
UniProt Q923Y9, whole entry: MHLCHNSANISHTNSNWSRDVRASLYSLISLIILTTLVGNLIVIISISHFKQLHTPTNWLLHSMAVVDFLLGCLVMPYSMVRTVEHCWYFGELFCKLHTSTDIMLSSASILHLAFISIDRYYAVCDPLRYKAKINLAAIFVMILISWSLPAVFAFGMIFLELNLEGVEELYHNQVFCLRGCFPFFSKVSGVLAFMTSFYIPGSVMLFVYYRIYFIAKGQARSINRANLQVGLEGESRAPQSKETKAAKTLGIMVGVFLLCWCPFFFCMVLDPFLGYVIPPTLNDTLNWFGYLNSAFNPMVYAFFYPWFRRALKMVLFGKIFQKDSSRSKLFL
UniProt Q923Y8, whole entry: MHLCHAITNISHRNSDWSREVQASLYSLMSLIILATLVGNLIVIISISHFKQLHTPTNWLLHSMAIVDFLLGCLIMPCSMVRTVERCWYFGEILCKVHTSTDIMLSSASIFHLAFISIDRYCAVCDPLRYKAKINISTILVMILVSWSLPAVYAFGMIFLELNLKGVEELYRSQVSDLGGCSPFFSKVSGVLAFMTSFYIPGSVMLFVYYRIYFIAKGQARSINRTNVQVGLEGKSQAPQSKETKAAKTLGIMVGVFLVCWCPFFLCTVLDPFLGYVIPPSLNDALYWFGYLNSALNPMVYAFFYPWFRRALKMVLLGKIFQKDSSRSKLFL
UniProt P28223, whole entry: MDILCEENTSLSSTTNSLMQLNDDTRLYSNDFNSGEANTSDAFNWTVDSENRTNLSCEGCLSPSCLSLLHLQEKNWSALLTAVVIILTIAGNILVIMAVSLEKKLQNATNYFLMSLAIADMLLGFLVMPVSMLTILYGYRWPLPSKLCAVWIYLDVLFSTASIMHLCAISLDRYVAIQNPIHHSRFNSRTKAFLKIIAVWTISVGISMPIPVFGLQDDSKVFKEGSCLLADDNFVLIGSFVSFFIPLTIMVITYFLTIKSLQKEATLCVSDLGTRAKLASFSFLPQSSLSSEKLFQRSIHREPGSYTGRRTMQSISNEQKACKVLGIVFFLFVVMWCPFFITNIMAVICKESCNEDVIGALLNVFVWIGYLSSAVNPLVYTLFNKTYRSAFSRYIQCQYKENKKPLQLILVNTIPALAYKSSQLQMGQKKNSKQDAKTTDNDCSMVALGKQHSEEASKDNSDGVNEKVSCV

Assays:
rat TAAR1 = molecular target: T1, rat TAAR1 (Rattus norvegicus, UniProt Q923Y9); test: Radioligand binding, rat TAAR1 ([3H]RO5166017); conditions: for Increase in TAAR1 binding affinity compared to 2C-O-21 (9): rat TAAR1 by context
T1 construct: expressed in transfected cells; host or cells: HEK 293 (membrane preparation)

mouse TAAR1 = molecular target: T2, mouse TAAR1 (Mus musculus, UniProt Q923Y8); test: Radioligand binding, mouse TAAR1 ([3H]RO5166017)
T2 construct: expressed in transfected cells; host or cells: HEK 293 (membrane preparation)

5-HT2A receptor = 5-HT2A receptor (Homo sapiens, UniProt P28223); type: binding; set-up: expressed in transfected cells; host or cells: HEK 293 (membrane preparation)

`C=C(C)COc1cc(OC)c(CCN)cc1OC` [2C-O-3, 2,5-dimethoxy-4-methallyloxyphenethylamine] was tested, and the “Increase in rat TAAR1 binding affinity compared to 2C-O-2 (6)” value (“Increase in rat TAAR1 binding affinity” below) (rat TAAR1) was 3 fold, the “Increase in mouse TAAR1 binding affinity compared to 2C-O-2 (6)” value (“Increase in mouse TAAR1 binding affinity” below) (mouse TAAR1) was 4 fold and the “Increase in 5-HT2A binding affinity compared to 2C-O-2 (6)” value (5-HT2A receptor) was 17 fold.
For `C=CCOc1cc(OC)c(CCN)cc1OC` [2C-O-16, 4-allyloxy-2,5-dimethoxyphenethylamine], the “Increase in rat TAAR1 binding affinity” value (rat TAAR1) was ~2 fold, the “Increase in mouse TAAR1 binding affinity” value (mouse TAAR1) was 2 fold and the “Increase in 5-HT2A binding affinity compared to 2C-O-2 (6)” value (5-HT2A receptor) was 5 fold.
`COc1cc(OCC(F)F)c(OC)cc1CCN` [2C-O-21.5, 4-(2,2-difluoroethoxy)-2,5-dimethoxyphenethylamine] was tested, and the “Increase in TAAR1 binding affinity compared to 2C-O-21 (9)” value (rat TAAR1) was 2 fold and the “Increase in 5-HT2A binding affinity compared to 2C-O-21 (9)” value (5-HT2A receptor) was 2 fold.
`COc1cc(OCC(F)(F)F)c(OC)cc1CCN` [2C-O-22, 2,5-dimethoxy-4-(2,2,2-trifluoroethoxy)phenethylamine] was tested, and the “Increase in TAAR1 binding affinity compared to 2C-O-21 (9)” value (rat TAAR1) was 2 fold and the “Increase in 5-HT2A binding affinity compared to 2C-O-21 (9)” value (5-HT2A receptor) was 4 fold.
With `COc1cc(OCc2ccccc2)c(OC)cc1CCN` [2C-O-27, 4-benzyloxy-2,5-dimethoxyphenethylamine] the “Increase in rat TAAR1 binding affinity” value (rat TAAR1) was 16 fold and the “Increase in mouse TAAR1 binding affinity” value (mouse TAAR1) was 6 fold.
In the case of `C=CCOc1cc(OC)c(CC(C)N)cc1OC` (stereo not shown) [MALM, 4-allyloxy-2,5-dimethoxyamphetamine], the “Increase in 5-HT2A binding affinity compared to TMA-2 (19)” value (5-HT2A receptor) is reported as “up to 9 fold”.
`COc1cc(OCC(F)F)c(OC)cc1CC(C)N` (stereo not shown) [MDFEM, 4-(2,2-difluoroethoxy)-2,5-dimethoxyamphetamine] was tested, and the “Increase in 5-HT2A binding affinity compared to monofluorinated 15” value (5-HT2A receptor) was 2 fold.
With `C=C(C)COc1cc(OC)c(CC(C)N)cc1OC` (stereo not shown) [MMALM, 2,5-dimethoxy-4-methallyloxyamphetamine] the “Increase in 5-HT2A binding affinity compared to TMA-2 (19)” value (5-HT2A receptor) was 21 fold.
In the case of `COc1cc(OCC(F)(F)F)c(OC)cc1CC(C)N` (stereo not shown) [MTFEM, 2,5-dimethoxy-4-(2,2,2-trifluoroethoxy)amphetamine], the “Increase in 5-HT2A binding affinity compared to monofluorinated 15” value (5-HT2A receptor) is reported as 4 fold.
